From patent US12139488B2, “Pyrido[3,2-d]pyrimidine compounds uses thereof for treating a proliferative disease” (Universite de Montreal, priority 2021, dated 2024) come the findings set out here.

The chains behind the UniProt entries cited, without tags or fusion partners.
UniProt P15056, whole entry: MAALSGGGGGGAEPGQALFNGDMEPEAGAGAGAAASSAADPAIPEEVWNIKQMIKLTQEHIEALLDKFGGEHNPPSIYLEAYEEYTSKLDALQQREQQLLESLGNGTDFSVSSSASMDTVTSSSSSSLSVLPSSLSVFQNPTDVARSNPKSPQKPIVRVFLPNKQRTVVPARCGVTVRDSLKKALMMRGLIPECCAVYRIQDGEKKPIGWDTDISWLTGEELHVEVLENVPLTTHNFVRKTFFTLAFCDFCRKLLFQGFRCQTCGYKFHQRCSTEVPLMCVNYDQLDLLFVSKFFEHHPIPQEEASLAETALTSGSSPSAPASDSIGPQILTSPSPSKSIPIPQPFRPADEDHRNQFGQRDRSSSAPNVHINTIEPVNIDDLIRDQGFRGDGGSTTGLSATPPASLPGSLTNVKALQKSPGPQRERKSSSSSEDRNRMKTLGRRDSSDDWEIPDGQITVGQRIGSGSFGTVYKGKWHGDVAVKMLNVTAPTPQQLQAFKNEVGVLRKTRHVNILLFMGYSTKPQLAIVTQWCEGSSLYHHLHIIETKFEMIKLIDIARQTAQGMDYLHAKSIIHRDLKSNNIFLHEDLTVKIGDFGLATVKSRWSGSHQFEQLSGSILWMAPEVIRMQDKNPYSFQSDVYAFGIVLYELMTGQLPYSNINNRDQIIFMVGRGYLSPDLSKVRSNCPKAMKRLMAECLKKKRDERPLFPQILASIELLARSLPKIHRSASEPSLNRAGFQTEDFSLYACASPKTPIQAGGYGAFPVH
UniProt P04049, whole entry: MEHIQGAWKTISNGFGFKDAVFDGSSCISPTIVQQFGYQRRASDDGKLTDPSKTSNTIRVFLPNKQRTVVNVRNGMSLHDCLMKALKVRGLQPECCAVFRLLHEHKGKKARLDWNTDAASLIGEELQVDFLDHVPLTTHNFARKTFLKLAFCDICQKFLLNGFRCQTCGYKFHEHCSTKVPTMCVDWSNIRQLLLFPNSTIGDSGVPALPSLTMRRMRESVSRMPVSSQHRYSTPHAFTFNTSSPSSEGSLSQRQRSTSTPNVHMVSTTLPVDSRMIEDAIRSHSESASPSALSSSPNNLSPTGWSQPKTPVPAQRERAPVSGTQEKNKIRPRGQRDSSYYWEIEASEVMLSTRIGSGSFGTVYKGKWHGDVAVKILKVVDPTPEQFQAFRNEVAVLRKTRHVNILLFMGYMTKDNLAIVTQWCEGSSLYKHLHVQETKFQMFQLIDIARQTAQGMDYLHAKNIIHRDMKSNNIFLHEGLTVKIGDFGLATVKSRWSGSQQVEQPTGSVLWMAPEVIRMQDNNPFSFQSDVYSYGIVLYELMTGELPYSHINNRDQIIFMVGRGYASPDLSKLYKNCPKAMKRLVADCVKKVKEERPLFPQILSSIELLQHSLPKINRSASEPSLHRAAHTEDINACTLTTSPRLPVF

Where two headings read alike, the source gives them in different places.

The target of one experiment is BRAF (Homo sapiens (Human), UniProt P15056). The experiment in a line: BRAF kinase activity assay (ADP-Glo).
Another experiment concerns the target CRAF (Homo sapiens, UniProt P04049). Put plainly: CRAF kinase activity assay (ADP-Glo).
Experiment [1] concerns pERK in HCT-116 cells (KRAS G13D). Put plainly: Phospho-ERK inhibition (AlphaLISA SureFire Ultra p-ERK 1/2), HCT116. To be noted: for IC50: read-out: HCT116 pERK IC50; for HCT116 pERK % Ymin (lowest value of the IC50 curve): Ymin above −20% = minimal or no paradoxical activation. The method, boiled down: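 pERK1/2 (Thr202/Tyr204) AlphaLISA, 1 h cpd, 10 conc. 10 μM→0.33 nM, 0.5% DMSO, RPMI-1640 + 5% FBS. Trametinib = 100%, DMSO = 0%. IC50, 4-param fit.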

[2] abbreviates: read-out: Kinase IC50 (nM) BRAF.
The mark [3] stands for this setting: read-out: Kinase IC50 (nM) CRAF.
Where [4] appears, read: HCT116 cells, class symbol before the bracket.
[5] abbreviates: read-out: Kinase IC50 (nM), BRAF biochemical kinase assay, BRAF.
Setting [6] is: read-out: Kinase IC50 (nM), CRAF biochemical kinase assay, CRAF.

As for `Cc1c(Cl)cccc1S(=O)(=O)Nc1ccc(F)c(Nc2ncnc3ccc(-n4cc(C(=O)N(C)CCN(C)C)c5c(N)cccc54)nc23)c1F`, the IC50 is < 1 nM at BRAF (read-out: Kinase IC50 (nM) BRAF, tested form: formate); > 50 nM on CRAF (read-out: Kinase IC50 (nM) CRAF, tested form: formate); < 500 nM in experiment [1] (HCT116 cells, class symbol before the bracket, tested form: formate). Also, in experiment [1] (HCT116 cells, Ymin in brackets, tested form: formate), the “HCT116 pERK Ymin %” value stood at 7.9%.
On to `Cc1c(Cl)cccc1S(=O)(=O)Nc1ccc(F)c(Nc2ncnc3ccc(-n4cc(C(=O)N5CCOCC5)c5c(N)cccc54)nc23)c1F`, for which the IC50 was < 1 nM at BRAF (setting [2]), 10 to 50 nM at CRAF (setting [3]) and < 500 nM in experiment [1] (setting [4]). Further, the “HCT116 pERK Ymin %” value in experiment [1] (HCT116 cells, Ymin in brackets) worked out at 3.3%.
In the same order, the values of `Cc1c(F)cccc1S(=O)(=O)Nc1ccc(F)c(Nc2ncnc3ccc(-n4nc(C(=O)N5CC6CCC(C5)N6)c5ccccc54)nc23)c1F` are < 1 nM, 10 to 50 nM, < 500 nM and −9.4%.
With `Cc1c(F)cccc1S(=O)(=O)Nc1ccc(F)c(Nc2ncnc3ccc(-n4nc(C(=O)N(C)CCc5ccccn5)c5ccccc54)nc23)c1F`, the IC50 on BRAF (setting [2]) was < 1 nM; on CRAF (setting [3]), > 50 nM; in experiment [1] (setting [4]) it was 500 to 1000 nM. Also, the “HCT116 pERK Ymin %” value in experiment [1] (HCT116 cells, Ymin in brackets) is −14.5%.
The like results for `CN(C)C(=O)Nc1cccc2c1ncn2-c1ccc2ncnc(Nc3c(F)ccc(NS(=O)(=O)c4ccccc4Cl)c3F)c2n1` were, in that order, 1 to 10 nM, 10 to 50 nM, 500 to 1000 nM and 12%.
Turning to `Cc1c(F)cccc1S(=O)(=O)Nc1ccc(F)c(Nc2ncnc3ccc(-n4nc(C(=O)N5CCC(O)CC5)c5ccccc54)nc23)c1F`, the IC50 on BRAF (setting [2]) was < 1 nM; at CRAF (setting [3]), 10 to 50 nM; in experiment [1] (setting [4]), < 500 nM. Moreover, the “HCT116 pERK Ymin %” value in experiment [1] (HCT116 cells, Ymin in brackets) is reported as −4.8%.
With `O=S(=O)(Nc1ccc(F)c(Nc2ncnc3ccc(-n4cnc5c(CN6CCOC[C@H]6CO)cccc54)nc23)c1F)c1ccccc1Cl`, the IC50 is 1 to 10 nM at BRAF (setting [2]), 10 to 50 nM at CRAF (setting [3]) and 1000 to 10000 nM in experiment [1] (setting [4]). For the same compound, the “HCT116 pERK Ymin %” value in experiment [1] (HCT116 cells, Ymin in brackets) worked out at 2%.
Consider `Cc1c(F)cccc1S(=O)(=O)Nc1ccc(F)c(Nc2ncnc3ccc(-n4nc(C(=O)N5CCN(C)CC5)c5ccccc54)nc23)c1F`, for which the 50% inhibitory concentration (IC50) on BRAF (setting [2]) is < 1 nM; on CRAF (setting [3]) it was > 50 nM; in experiment [1] (setting [4]), < 500 nM. Also, the “HCT116 pERK Ymin %” value in experiment [1] (HCT116 cells, Ymin in brackets) is 5%.
Regarding `Cc1c(F)cccc1S(=O)(=O)Nc1ccc(F)c(Nc2ncnc3ccc(-n4cnc5c(N6CCC(O)(C(F)(F)F)CC6)cccc54)nc23)c1F`, the results for the IC50 (on BRAF (setting [5]); at CRAF (setting [6]); in experiment [1] (HCT116 cells)) were 1 to 10 nM, 10 to 50 nM and < 500 nM, respectively. In experiment [1] (HCT116 cells), the “HCT116 pERK % Ymin (lowest value of the IC50 curve)” value (from here on “HCT116 pERK % Ymin”) is −15%.
Take `CN1CCN(S(=O)(=O)c2cn(-c3ccc4ncnc(Nc5c(F)ccc(NS(=O)(=O)c6cccc(Cl)c6Cl)c5Cl)c4n3)c3ccccc23)CC1`: the IC50 was 1 to 10 nM on BRAF (read-out: Kinase IC50 (nM) BRAF, Table 5); 10 to 50 nM at CRAF (read-out: Kinase IC50 (nM) CRAF, Table 5); < 500 nM in experiment [1] (HCT116 cells, Table 5). In addition, the “HCT116 pERK Ymin %” value in experiment [1] (lowest value of the curve, HCT116, Table 5) was −3%.
In the case of `CC(C)N1CCN(c2cccc3c2ncn3-c2ccc3ncnc(Nc4c(F)ccc(NS(=O)(=O)c5cccc(Cl)c5Cl)c4F)c3n2)CC1`, the results for the IC50 (at BRAF (setting [5]); at CRAF (setting [6]); in experiment [1] (HCT116 cells)) were < 1 nM, < 10 nM and < 500 nM, respectively. The “HCT116 pERK % Ymin” value in experiment [1] (HCT116 cells) is given as −12%.
For `O=S(=O)(Nc1ccc(F)c(Nc2ncnc3ccc(-c4cncnc4)nc23)c1F)c1cccc(Cl)c1Cl`, the IC50 on BRAF (setting [5]) lay in the range of 1 to 10 nM; on CRAF (setting [6]) it was 10 to 50 nM; in experiment [1] (HCT116 cells) it was 500 to 1000 nM. Moreover, in experiment [1] (HCT116 cells), the “HCT116 pERK % Ymin” value is 4%.
Consider `Cc1c(F)cccc1S(=O)(=O)Nc1ccc(F)c(Nc2ncnc3ccc(-n4nc(C(=O)N(C)C)c5ccccc54)nc23)c1F`, for which the IC50 at BRAF (setting [2]) is < 1 nM; at CRAF (setting [3]), < 10 nM; in experiment [1] (setting [4]), < 500 nM. Further, in experiment [1] (HCT116 cells, Ymin in brackets), the “HCT116 pERK Ymin %” value is −19%.
As to `O=S(=O)(Nc1ccc(F)c(Nc2ncnc3ccc(-n4cnc5c(CN6CCC[C@@H]6CO)cccc54)nc23)c1F)c1ccccc1Cl`, the values for the IC50 (at BRAF (setting [2]); on CRAF (setting [3]); in experiment [1] (setting [4])) were 1 to 10 nM, > 50 nM and 1000 to 10000 nM, respectively. In experiment [1] (HCT116 cells, Ymin in brackets), the “HCT116 pERK Ymin %” value is given as −7%.
